# Source: PubChem BioAssay AID1259423 (Fisher Drug Discovery Resource Center, 2018)
# This is a selection; strong and weak results do not stand in their true shares. Calls of active or inactive are those of the source. Cut-off read from the data, not from the text of the source: active = activation above about 40%; inactive = the rest, inconclusive results apart.
# Test system: Aedes aegypti neuropeptide Y-like receptor 7 (NPYLR7)
# Assay: agonists of mosquito NPYLR7 receptor, primary screen, cell-based, Aedes aegypti, calcium fluorescence, mosquito biting behavior (AID 1259423);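 note: 0% = vehicle and 100% = reference agonist at the receptor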
# Conditions: HEK293T NPYLR7/Galpha15, GCaMP6s calcium fluorescence; at 10 µM; hits give high values
row,Structure (SMILES),activation
1,CN(CCCl)CCCl,inactive: -8.16%
